In one experiment the target is T1, MDMX (Homo sapiens, UniProt O15151).
T1 sequence (O15151 1-125): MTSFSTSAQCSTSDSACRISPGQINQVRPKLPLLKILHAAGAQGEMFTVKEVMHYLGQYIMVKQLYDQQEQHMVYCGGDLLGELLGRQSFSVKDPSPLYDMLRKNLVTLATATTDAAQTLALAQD
Briefly: Competitive fluorescence polarization assay for MDMX. As to conditions: competitive FP assay. In kind it is binding. On the technique in general: Fluorescence polarisation rises when a labelled molecule tumbles more slowly, as on binding a larger partner.

Protein sequences, listed by entry. Tags and fused reporters are not part of them. Residues count along the entry.
UniProt Q00987, 1-125: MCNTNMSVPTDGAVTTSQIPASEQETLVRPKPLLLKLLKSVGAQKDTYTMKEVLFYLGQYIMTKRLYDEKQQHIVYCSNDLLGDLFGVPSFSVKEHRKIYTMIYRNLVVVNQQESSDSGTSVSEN

The target in another experiment is MDM2 (Homo sapiens, UniProt Q00987). Briefly: Competitive fluorescence polarization assay for MDM2. In kind it is binding. As to conditions: competitive FP assay.

Results on one compound are retold here after patent publication US8927500B2, “Peptidomimetic macrocycles” (Aileron Therapeutics, Inc., priority 2012, dated 2015).

For orientation: IC50 means the midpoint of a concentration-inhibition curve. Higher therefore signals a need for much substance. The term Ki denotes the equilibrium dissociation constant of an inhibitor or competing ligand from its target.

`CC(=O)N[C@@H](CC(C)C)C(=O)N[C@H](C(=O)N[C@@H](Cc1ccccc1)C(=O)N[C@]1(C)CCCCCCC=CCCC[C@@](C)(C(=O)N[C@@H](CO)C(=O)N[C@@H](C)C(=O)N[C@H](C)C(N)=O)NC(=O)[C@H](CC(C)C)NC(=O)[C@H](CCC(N)=O)NC(=O)[C@H](C)NC(=O)[C@H](Cc2c[nH]c3ccccc23)NC(=O)[C@H](Cc2ccc(O)cc2)NC(=O)[C@H](C(C)C)NC1=O)[C@@H](C)O` [compound 137]: the half-maximal inhibitory concentration (IC50) was 100 to 1000 nM at MDMX (IC50 (MDMX)) and less than 10 nM at MDM2 (IC50 (MDM2)). For the same compound, the results for the inhibition constant Ki at MDMX (Ki (MDMX)) and on MDM2 (Ki (MDM2)) were 10 to 100 nM and less than 10 nM, respectively.
